Results as given in patent US20230340373A1, “CLEANING WIPES” (Tygrus LLC, priority 2022, published 2023).

Assay: Conductivity, EPA method 120.1
Format: physicochemical
Conditions: samples 1% by volume in water, diluted with de-ionized water; predicted results
Experimental: To further evaluate the materials prepared in Examples I and II, samples of the materials are diluted with deionized water to provide material that contains 1% by volume of the respective material in water.
In order to test for conductivity the samples are each diluted with de-ionized water for analysis. The testing is completed using a Mettler Toledo Seven Excellence Meter with a conductivity probe following EPA method 120.1.

## O=S(=O)(O)O [Dilute sulfuric acid, sulfuric acid]
  Conductivity: 556 mS/cm
